In one series the target is T1, CYP2C9 (Homo sapiens, UniProt P11712).
T1 construct: incubation of isoform-specific substrates with human liver microsomes; from tissue; host or cells: human liver microsomes
Kind of series: Cytochrome P450 inhibition, human liver microsomes. It counts as in vitro ADME. As to conditions: with NADPH preincubation; read-out: Time-dependent inhibition IC50. On the procedure:
Direct CYP inhibition studies were conducted using conditions described previously ([43]) following incubation of isoform-specific substrates with human liver microsomes. The formation of known metabolites mediated by a specific CYP isoform was monitored. CYP isoform-specific pathways (and positive control inhibitors) included CYP1A2: phenacetin O-deethylation (furafylline), CYP2B6: bupropion hydroxylation (PPP), CYP2C8: amodiaquine deethylation (quercetin) CYP2C9: tolbutamide methylhydroxylation (sulfaphenazole), CYP2C19: (S)-mephenytoin 4’-hydroxylation (ticlopidine), CYP2D6: dextromethorphan O-demethylation (quinidine), and CYP3A: midazolam 1’-hydroxylation and testosterone 6β-hydroxylation (ketoconazole). Briefly, DNDI-6174 (or positive control inhibitor) was incubated (37°C) at varying concentrations (up to 20 μM) in a 96-well plate with human liver microsomes suspended in buffer with addition of each substrate. The organic solvent content was maintained at less than 1% (v/v). […] Concentrations of the isoform-specific metabolites were quantified by LC-MS (Waters Xevo TQD triple quadrupole MS coupled to a Waters Acquity UPLC system) relative to calibration standards prepared in pre-quenched microsomal matrix. […]
Time dependent inhibition was assessed using an “IC50 shift” method based on a previous publication ([44]). […]
In general terms: Liver microsomes are vesicles of endoplasmic reticulum, rich in cytochrome P450 enzymes.

Chains of the proteins cited; added tags and fusions are not shown.
UniProt P11712, whole entry: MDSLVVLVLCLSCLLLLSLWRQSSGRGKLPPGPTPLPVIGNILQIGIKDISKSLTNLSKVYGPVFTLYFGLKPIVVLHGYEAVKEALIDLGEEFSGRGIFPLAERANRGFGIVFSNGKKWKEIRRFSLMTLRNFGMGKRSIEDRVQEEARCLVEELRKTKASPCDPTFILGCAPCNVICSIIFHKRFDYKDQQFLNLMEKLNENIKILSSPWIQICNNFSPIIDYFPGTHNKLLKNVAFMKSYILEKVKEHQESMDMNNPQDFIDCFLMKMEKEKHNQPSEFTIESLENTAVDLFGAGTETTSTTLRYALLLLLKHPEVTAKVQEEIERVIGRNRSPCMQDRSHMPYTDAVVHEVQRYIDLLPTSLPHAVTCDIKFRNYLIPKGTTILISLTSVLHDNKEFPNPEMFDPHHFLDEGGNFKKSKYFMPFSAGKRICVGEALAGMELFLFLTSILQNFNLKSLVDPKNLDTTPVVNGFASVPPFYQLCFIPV

Series [1] relates to L. infantum MHOM/MA67/ITMAP263. Put plainly: Acute mouse infection model (VL). It counts as in vivo, BALB/c mice. To be noted: 6.25 mg/kg bid, 5-day dosing. On the procedure: (§1) Female 8−10-week-old BALB/c mice were infected with 2 x 10^7 L. donovani MHOM/ET/67/L82 (synonym HU3) or L. infantum MHOM/MA67/ITMAP263 amastigotes on day 0 and dispatched in groups of five individuals. […] Five days following end of treatment, all mice were sacrificed, and parasite burden was determined from smears of liver sections. Efficacy was expressed as the mean percentage load reduction compared to untreated (vehicle-only) control animals. Reference drugs miltefosine and/or AmBisome were used as positive controls and comparators.

For series [2], the system named is L. donovani MHOM/ET/67/L82 (synonym HU3). Put plainly: Acute mouse infection model (VL). It counts as in vivo, BALB/c mice. To be noted: 6.25 mg/kg bid, 5-day dosing. On the procedure: as §1
Another series can be described thus: Caco-2 permeability. It counts as in vitro ADME. As to conditions: human, Caco-2, Caco-2. On the procedure:
The ionization constant (pKa), octanol-pH 7.4 buffer partition coefficient (Log D7.4), solubility in biorelevant buffers (FaSSIF-V2, FeSSIF-V2, FaSSGF and pH 7.4 phosphate buffered saline (PBS)) and Caco-2 permeability were determined according to previously published methods ([10]).
On the technique in general: Caco-2 monolayers are a common model of the intestinal barrier.

Series [3] in a line: Blood to plasma partitioning. It counts as in vitro ADME. To be noted: for blood plasma ratio at 1000 ng/mL: whole blood, pH 7.4. On the procedure:
Whole blood to plasma partitioning (B:P) was determined in human, rat and mouse whole blood and blood stability was assessed in human and rat whole blood. Fresh dog blood was not available,e so the average of the other three species was used as an estimate. For rat and human, aliquots of whole blood were spiked with DNDI-6174 to a concentration of 1000 ng/mL and maintained at 37°C under a 5% CO2 atmosphere to maintain the pH at 7.4 ± 0.1. At 30 and 120 min, eight aliquots of the whole blood were transferred to fresh microcentrifuge tubes and four were used for stability assessment and to determine the whole blood concentration, with the remaining four being centrifuged for separation of plasma to determine the blood to plasma ratio. For mouse, blood was collected from mice at 15 min and 1 h after an IV dose of 3 mg/kg into tubes containing heparin, samples were gently mixed before removing aliquots of whole blood and centrifugation of the remaining blood for the collection of plasma. For analysis, blood and plasma samples were matrix matched by mixing the sample with an equal volume of the opposite blank matrix (i.e. blood samples were mixed with blank plasma and plasma samples were mixed with blank blood) and then quantitated by LCMS against a calibration curve prepared in a 1:1 mixture of blank blood and plasma.

Another series in a line: In vivo pharmacokinetics. As to conditions: female, golden Syrian, hamster, plasma, hamsters, oral 6.25 mg/kg qd. Here is the method:
Additional PK studies were also conducted by WuXi AppTec Co, Ltd (Shanghai, China) according to protocols reviewed and approved by DNDi. Studies were conducted in male Sprague Dawley rats (IV dose of 3 mg/kg and single oral doses of 10, 50, 100 and 300 mg/kg), female BALB/c mice (twice daily (at 6 and 24 h) oral doses of 3.13, 6.25 and 12.5 mg/kg for 5 days), golden Syrian hamsters (single oral dose of 50 mg/kg and once daily oral doses of 6.25, 12.5 and 25 mg/kg for 5 days) and in beagle dogs (IV dose of 1 mg/kg and single oral doses of 5 and 30 mg/kg). IV and oral formulations for rats, mice and hamsters were the same as described above. For dogs, the IV dose was administered in saline containing 2% DMSO and 3% Solutol HS-15 and the oral formulation was as described above. Blood was sampled up to 48 h post-dose into vials containing potassium EDTA as an anticoagulant, proteins were precipitated with acetonitrile and plasma was separated and assayed by LC-MS.
Single dose pharmacokinetic parameters (clearance, volume of distribution and half-life) were initially estimated using non-compartmental methods and oral bioavailability was calculated using the ratio of the dose corrected AUC after oral dosing relative to that after IV administration. Nominal doses were used in the calculations unless the measured dose differed by more than 15% from the nominal dose, in which case the measured dose was used. Where a full concentration versus time profile was obtained from a single animal, parameters were estimated for each animal and mean and standard deviations calculated. In the case of mice where sparse sampling was used with multiple animals per time point, the data analysis was conducted using the mean profile.

For orientation: IC50 means the concentration needed to halve the response being measured. A word on the efflux ratio: it is the permeability from basolateral to apical divided by that in the opposite direction, in the common usage. The term Cmax denotes the maximum level reached in the sampled fluid or tissue.

As to `Cc1[nH]c2nc(N)nc(C)c2c1-c1ccc(C#N)c2c1OCO2` [DNDI-6174], the half-maximal inhibitory concentration (IC50) on CYP2C9 was found to be 16.4 µM. In addition, the “efficacy (>95% reduction in liver parasite burden), in words” value in series [1] and in series [2] was “not sufficient” in each case. In “Caco-2 permeability”, the efflux ratio came to 1. Besides, the blood plasma ratio at 1000 ng/mL worked out at 0.8 in series [3] (human) and 0.93 in series [3] (rat). Further, the blood plasma ratio in series [3] (mouse, whole blood and plasma, intravenous, 3 mg/kg) turned out to be 0.88. This molecule also yielded a Cmax at 5 days in “In vivo pharmacokinetics” of 1430 ng/mL. For the same molecule, the AUC(0-t) in the series “In vivo pharmacokinetics” (5 days, read-out: AUC0-24 (first dose)) worked out at 3580 ng·h/mL. In the series “In vivo pharmacokinetics” (5 days, read-out: AUC96-120 (last dose)), the AUC was found to be 9230 ng·h/mL. In the series “In vivo pharmacokinetics” (5 days, read-out: Cmax (Day 1)), the Cmax is 661 ng/mL.

Values taken from paper PMC7615677, “DNDI-6174, a preclinical candidate for visceral leishmaniasis that targets the cytochrome bc1 complex” (Science translational medicine, 2023).
